Test system: metastatic melanoma
Assay: Immunotherapy of patients with metastatic melanoma, clinical and immunological response
Format: in vivo, human
Settings: similar experiment in metastatic melanoma patients
Method: Patients with metastatic melanoma can be treated using an immunotherapy regimen with the following components: 1) vaccine consisting of autologous tumor cells conjugated to DNP; and 2) low dose cyclophosphamide pretreatment. Patients are evaluated to determine whether tumor regression occurs, to monitor tumor inflammatory responses, and to measure delayed type hypersensitivity response to autologous melanoma cells, DNFB (the form of DNP used for skin sensitization), DNP-conjugated autologous lymphocytes, diluent (Hanks solution), purified protein derivative (PPD), and recall antigens (candida, trichophyton, and mumps). Patients who are considered to be deriving benefit (clinical or immunological) from the therapy are continued in the immunotherapy regimen. Subsequent vaccines may be given without cyclophosphamide.

Interleukin 2 linked to polyethylene glycol: Interleukin 2 linked to polyethylene glycol, tried in a similar immunotherapy experiment
effectiveness in immunotherapy regimen: not be effective

Reference: patent US6403104B1, “Hapten-conjugated mammalian cells and methods of making and using thereof” (Thomas Jefferson University, priority 1999, dated 2002)
